Test results as given in patent US20060111357A1, “Quinoline compounds for use in mch receptor related disorders” (priority 2003, published 2006).

By UniProt entry, the sequences of proteins in these tests, tags left out. Where a name states a change or a piece, a line headed by the entry shows the natural chain unless it says otherwise.
UniProt Q12809: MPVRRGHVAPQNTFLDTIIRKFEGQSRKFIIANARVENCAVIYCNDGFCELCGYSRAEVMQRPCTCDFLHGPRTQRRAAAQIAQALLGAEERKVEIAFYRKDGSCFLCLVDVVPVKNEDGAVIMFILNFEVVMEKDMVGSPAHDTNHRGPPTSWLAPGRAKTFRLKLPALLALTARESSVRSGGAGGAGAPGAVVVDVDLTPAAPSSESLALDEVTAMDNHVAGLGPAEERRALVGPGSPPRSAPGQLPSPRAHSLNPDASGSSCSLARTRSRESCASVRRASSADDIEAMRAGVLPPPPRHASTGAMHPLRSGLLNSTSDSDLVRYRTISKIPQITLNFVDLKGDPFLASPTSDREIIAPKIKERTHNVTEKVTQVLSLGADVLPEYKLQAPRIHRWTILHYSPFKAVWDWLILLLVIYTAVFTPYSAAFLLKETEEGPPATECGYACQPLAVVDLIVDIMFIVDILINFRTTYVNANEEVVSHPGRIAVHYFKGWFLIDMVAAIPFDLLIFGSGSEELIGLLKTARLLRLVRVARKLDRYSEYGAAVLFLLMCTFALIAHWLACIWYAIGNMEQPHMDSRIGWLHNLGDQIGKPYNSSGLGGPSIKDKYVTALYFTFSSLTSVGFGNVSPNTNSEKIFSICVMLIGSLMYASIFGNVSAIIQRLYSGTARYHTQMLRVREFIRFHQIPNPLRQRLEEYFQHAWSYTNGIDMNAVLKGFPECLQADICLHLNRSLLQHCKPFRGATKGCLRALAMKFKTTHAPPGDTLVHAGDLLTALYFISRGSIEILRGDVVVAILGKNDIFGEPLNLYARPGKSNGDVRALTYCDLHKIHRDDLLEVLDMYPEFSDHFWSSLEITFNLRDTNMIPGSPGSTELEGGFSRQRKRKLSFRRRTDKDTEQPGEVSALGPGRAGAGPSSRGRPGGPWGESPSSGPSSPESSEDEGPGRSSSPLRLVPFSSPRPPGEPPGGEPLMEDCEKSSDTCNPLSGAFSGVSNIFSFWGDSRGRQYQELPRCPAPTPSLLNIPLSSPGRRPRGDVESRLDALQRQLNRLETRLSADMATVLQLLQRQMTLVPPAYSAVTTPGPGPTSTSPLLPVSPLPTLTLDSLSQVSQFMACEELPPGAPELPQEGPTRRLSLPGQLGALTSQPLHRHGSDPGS

Target: HERG channels (Homo sapiens, UniProt Q12809)
Test: HERG selectivity method, whole-cell patch-clamp recordings

CC(C)COCC(CN(Cc1ccccc1)c1ccccc1)N1CCCC1 (centres unmarked) [Bepridil] gave a Ki of 0.36 ± 0.26 µM.
CNCCCN1c2ccccc2CCc2ccccc21 [Desipramine] showed a Ki of 35 ± 9.2 µM.
